Measurements reported in PMC7360964, “Auto‐inhibition of Mif2/CENP‐C ensures centromere‐dependent kinetochore assembly in budding yeast” (The EMBO Journal, 2020).

Tests used:
[1] = target: T1, Mtw1‐Nnf1 heterodimer (MN) (Saccharomyces cerevisiae, UniProt P39731+P47149); test: FP competition of FITC-Mif2 1-41/MN by unlabeled Ame1 peptide; type: binding, budding yeast (S. cerevisiae); details: FITC-Mif2 and MN pre-incubated at EC50, unlabeled Ame1 peptide
T1 construct: made in house; host or cells: E. coli BL21 (DE3)
T1 sequence (P39731 1-289): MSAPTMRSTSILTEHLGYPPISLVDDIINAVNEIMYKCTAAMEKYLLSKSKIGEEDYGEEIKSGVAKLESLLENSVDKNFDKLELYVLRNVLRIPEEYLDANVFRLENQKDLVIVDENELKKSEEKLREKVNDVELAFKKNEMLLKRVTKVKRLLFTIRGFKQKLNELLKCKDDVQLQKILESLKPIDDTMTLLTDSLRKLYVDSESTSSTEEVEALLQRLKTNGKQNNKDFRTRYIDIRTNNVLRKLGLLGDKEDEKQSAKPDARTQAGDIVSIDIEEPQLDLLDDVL
T1 sequence (P47149 1-201): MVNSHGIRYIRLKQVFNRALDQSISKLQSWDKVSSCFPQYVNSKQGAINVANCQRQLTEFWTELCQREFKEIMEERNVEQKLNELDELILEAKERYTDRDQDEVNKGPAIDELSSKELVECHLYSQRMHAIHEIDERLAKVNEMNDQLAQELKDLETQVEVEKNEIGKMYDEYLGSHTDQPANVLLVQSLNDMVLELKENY

[2] = target: T2, MN (Saccharomyces cerevisiae, UniProt P39731+P47149); test: Isothermal titration calorimetry (ITC) with MN; type: binding, budding yeast (S. cerevisiae); details: summary of FP and ITC assays
T2 construct: made in house; host or cells: E. coli BL21 (DE3)
T2 sequence (P39731 1-289): T1 sequence (P39731 1-289)
T2 sequence (P47149 1-201): T1 sequence (P47149 1-201)
Excerpt: Figure 5 The Mif2 N‐terminus is prevented from high‐affinity Mtw1c binding in the full‐length molecule • Co‐purification of Strep‐Mtw1c through Flag‐Mif2 after co‐expression in insect cells. Proteins were detected by Western blotting using their respective tags. • Western blotting of elution fractions from an SEC experiment of Mif2‐wt or Mif2^Ame1‐N swap in the absence (upper panel) or presence (lower panel) of Mtw1c. • ITC analysis of Mif2^1‐41 or Ame1^1‐20 binding to MN. Experiments were performed 3 or 4 times, respectively. One representative binding curve is shown, whereas the KD value represents the average of all experiments. • Cross‐link (XL) MS analysis of the Mif2wt protein in isolation or bound to Cse4n using the cross‐linker Bis[sulfosuccinimidyl] glutarate. Mif2wt alone or in combination with Cse4n was subjected to analytical size‐exclusion chromatography at 10 μM concentration. The corresponding Coomassie‐stained SDS–PAGE gels of Mif2‐wt alone or in combination with Cse4n are shown. Fractions used for cross‐linking are highlighted. […]
The binding constant of Ame1 could only be indirectly measured in the FP competition assay, as labeling of Ame1 N‐terminal peptides rendered them insoluble. We therefore directly determined binding affinities of Mif2 and Ame1 N‐terminal peptides to MN using isothermal titration calorimetry (ITC). […]

[3] = target: T1, Mtw1‐Nnf1 heterodimer (MN); test: GST pulldown (solid-phase) competition: MN binding to GST-Mif2 1-41 or GST-Ame1 1-30 with Ame1 1-20 peptide; set-up: species or system budding yeast (S. cerevisiae)

SMILES: CSCC[C@H](N)C(=O)N[C@@H](CC(=O)O)C(=O)N[C@@H](CCCNC(=N)N)C(=O)N[C@@H](CC(=O)O)C(=O)N[C@H](C(=O)N[C@@H](CCCCN)C(=O)N[C@@H](CC(C)C)C(=O)N[C@@H](C)C(=O)N[C@@H](Cc1ccccc1)C(=O)N[C@@H](CCCNC(=N)N)C(=O)N[C@@H](CC(C)C)C(=O)N[C@@H](CCCNC(=N)N)C(=O)NCC(=O)N[C@@H](CO)C(=O)N[C@@H](Cc1c[nH]cn1)C(=O)N[C@@H](CO)C(=O)N[C@@H](CCCNC(=N)N)C(=O)N[C@@H](CCCNC(=N)N)C(=O)N[C@H](C(=O)N[C@@H](CC(=O)O)C(=O)O)[C@@H](C)O)[C@@H](C)O [Ame1^1‐20]
- competition of Mif2-N binding to MN, FP [1]: effective competition
- dissociation constants for Mtw1 constructs [2]: low micromolar range
- inhibition of MN binding to GST-Mif2-N ([3]; bait 1 μM, MN 3 μM, increasing Ame1 1-20, 1 h at 4°C, pH 7.5, 200 mM NaCl, Coomassie SDS-PAGE): able to inhibit binding of MN to GST‐Mif2‐N in a dose‐dependent manner
- competition with GST-Ame1N for MN binding ([3]; free Ame1 peptide, Fig 2A lane 2 versus 3): not very efficiently competing
